Molecular target: Suppressor of tumorigenicity 14 protein (Homo sapiens, UniProt Q9Y5Y6)

CC(C)c1cc(C(C)C)c(S(=O)(=O)N[C@@H](Cc2cccc(C(=N)N)c2)C(=O)N2CCN(C(=O)C3CCN(C(=N)N)CC3)CC2)c(C(C)C)c1
Ki: 14 nM

CCOC(=O)N1CCN(C(=O)[C@H](Cc2cccc(C(=N)N)c2)NS(=O)(=O)c2c(C(C)C)cc(C(C)C)cc2C(C)C)CC1
Ki: 320 nM
